# Experimental data taken from patent publication US10487044B2, “Gamma-aminobutyric acid hemihydrate crystal and preparation method thereof” (priority 2016, dated 2019).
# Test: Stability in constant temperature and humidity chamber, followed by X-ray powder diffraction
# Conditions: petri dish, 30° C., 60 days, samples at the 30th and 60th days
row,SMILES,stability: X-ray powder diffraction patterns after storage
1,"NCCCC(=O)O [Embodiment 1, γ-aminobutyric acid hemihydrate]",did not change significantly
2,"NCCCC(=O)O [Embodiment 2, γ-aminobutyric acid hemihydrate]",did not change significantly
3,"NCCCC(=O)O [Embodiment 3, γ-aminobutyric acid hemihydrate]",did not change significantly
4,"NCCCC(=O)O [Embodiment 4, γ-aminobutyric acid hemihydrate]",did not change significantly
5,"NCCCC(=O)O [Embodiment 5, γ-aminobutyric acid hemihydrate]",did not change significantly
6,"NCCCC(=O)O [Embodiment 6, γ-aminobutyric acid hemihydrate]",did not change significantly
